SMILES strings stand for the structures.

For this experiment, the system named is CD69 on CD20 positive cells in human whole blood stimulated by anti-IgM. Description: CD69 Whole Blood Assay. The experiment is classed as cell-based. As to conditions: anti-human IgM stimulation, 20 hours.

For orientation: IC50 means the concentration needed to halve the response being measured. A high value points to weaker potency in that assay. The compound `Cn1cc(-c2cc(F)cc(N3CCn4c(cc5c4CCCC5)C3=O)c2CO)cc(Nc2ccc(N3CCN(C4COC4)CC3)cn2)c1=O` [Example 210, 2-(5-fluoro-2-(hydroxymethyl)-3-(1-methyl-5-(5-(4-(oxetan-3-yl)piperazin-1-yl)pyridin-2-ylamino)-6-oxo-1,6-dihydropyridin-3-yl)phenyl)-3,4,6,7,8,9-hexahydropyrazino[1,2-a]indol-1(2H)-one] returned an IC50 of 35 nM. This lies in the double-digit nanomolar range.
